4 compounds from US8101552B2, “Cyclic phosphates as plant growth regulators” (dated 2012) can be followed below.

Experiment [1] relates to African violet. Kind of experiment: Direct organogenesis on African violet leaf, two-month treatment (FIG. 2).
The subject of a further experiment is Rubia roots (clone R4C). Kind of experiment: Rubia root growth on solid MS under light or darkness. The settings on record: 1 μM; for biomass accumulation of Rubia roots / growth rate of Rubia roots: under darkness; for positive effects on biomass accumulation and growth rate of Rubia roots: under light.
The subject of a further experiment is Saintpaulia ionantha. As to the kind of experiment: Organogenesis (propagules) from leaf cuttings in MS medium (Example 3). The settings on record: 2 successive cultures each of 2 months.
In experiment [2] the test system is transformed callus of Rubia tinctorum. As to the kind of experiment: Survival and growth of light-sensitive transformed callus under light (Example 2). The following applies: various concentrations.
Experiment [3] concerns African violet. Kind of experiment: Plantlet growth from excised African violet leaves on solid MS medium (Example 1). The following applies: for biomass accumulated by entire plantlet cluster: after 8 weeks; for effect on plantlet growth: after 4 weeks; for development of shoots and roots from leaf base to form new plantlets: no other plant growth regulators, αGP at 200 μM.

For the compound `O=[N+]([O-])C1(CO)COP([O-])OC1.[Na+]` (stereo not shown), the “effect on direct organogenesis (number and biomass of propagules on leaf)” value (shortened to “effect on direct organogenesis”) with African violet [1] is listed as “had an effect on direct organogenesis”. For the same compound, in the experiment with Rubia roots (clone R4C), the “biomass accumulation of Rubia roots” value was “stimulated biomass accumulation”. In addition, the “growth rate of Rubia roots” value in the experiment with Rubia roots (clone R4C) is reported as “stimulated”. Moreover, in the experiment with Rubia roots (clone R4C), the “positive effects on biomass accumulation and growth rate of Rubia roots” value is “not observed”. The “number of plantlets produced per original leaf cutting” value in the experiment with Saintpaulia ionantha (1 μM) is on record as 6.5; in the experiment on Saintpaulia ionantha (10 μM), 4; in the experiment with Saintpaulia ionantha (100 μM) it was 8.5; in the experiment on Saintpaulia ionantha (200 μM), 0.5. For the same compound, the “callus survival and growth under light” value in experiment [2] is “allowing the callus to survive and grow under light”. Besides, the “biomass accumulated by entire plantlet cluster” value in the experiment on African violet [3] (1 μM) came to 228 mg FW; in the experiment with African violet [3] (10 μM) it was 470 mg FW; with African violet [3] (100 μM), 412 mg FW; with African violet [3] (200 μM), 541 mg FW. Also, the “effect on plantlet growth” value in the experiment on African violet [3] (200 μM) was “had an effect on plantlet growth”. In addition, the “development of shoots and roots from leaf base to form new plantlets” value in the experiment with African violet [3] was “shoots and roots developed from the leaf base”.

With DL-α-Glycerophosphate, in the experiment on African violet [3] (200 μM), the “effect on plantlet growth” value is given as “only an insignificant effect”. Moreover, the “development of shoots and roots from leaf base to form new plantlets” value in the experiment with African violet [3] is given as “no such growth was observed”.

As to `O=[N+]([O-])C1(CO)COP(O)OC1` (stereo not shown), the “effect on direct organogenesis” value in the experiment with African violet [1] is listed as “had an effect on direct organogenesis”. In the experiment on Rubia roots (clone R4C), the “biomass accumulation of Rubia roots” value was “stimulated biomass accumulation”; the “growth rate of Rubia roots” value was “stimulated”; the “positive effects on biomass accumulation and growth rate of Rubia roots” value is reported as “not observed”.

In the case of `[Na+].[O-]P1OCCCO1`, in the experiment with African violet [1], the “effect on direct organogenesis” value is listed as “had an effect on direct organogenesis”.
